Laboratory results from article PMC6070540, “SUMO-mediated regulation of NLRP3 modulates inflammasome activity” (Nature Communications, 2018).

Test system: caspase-1
Experiment: Caspase-1 cleavage assay in 293T-ASC-caspase-1 cells
Format: cell-based, human
Conditions: transfected 293T-ASC-caspase-1 cells; p20 immunoblot
Experimental: For caspase-1 cleavage assays 1 × 10^5 HEK293T-ASC-caspase-1 cells were plated in 24-well plates and transfected with a total of 600 ng of DNA the following day. Cells were lysed in 80 μl of DISC lysis buffer (20 mM Tris-HCL pH 7.5, 150 mM NaCl, 2 mM EDTA, 1% Triton X-100, 10% Glycerol) supplemented with 2% SDS. To shred genomic DNA cell lysates were passed through 0.8 ml columns (Pierce). Lysates were quantified using BCA protein assay kit (Pierce) and 6× SDS loading dye added. Samples were boiled for 5 min before separating by SDS-PAGE using NuPAGE Novex 4–12% Bis-Tris 1.0 mm 20 well precast midi protein gels (Life Technologies) in MES buffer. Caspase-1 p20 antibody (Bally-1, human, Adipogen) was used to detect total and cleaved caspase-1 in cell lysate.

WT NLRP3: wild-type NLRP3 expressed by transfection
ability of NLRP3 to activate caspase-1: stimulated activation of caspase-1
